Source: ChEMBL document CHEMBL5543159, “Discovery of an Ortho-Substituted N-Cyclopropylmethyl-7α-phenyl-6,14-endoethano-tetrahydronorthebaine Derivative as a Selective and Potent Kappa Opioid Receptor Agonist with Subsided Sedative Effect” (2024)

Experiments:
[1] = Selectivity ratio of Ki for displacement of [3H]-DAMGO from rat MOR receptor to Ki for displacement of [3H]U69593 from human KOR
[2] = Selectivity ratio of Ki for displacement of [3H]DPDPE from rat DOR to Ki for displacement of [3H]U69593 from human KOR

SMILES | Ratio Ki [1] | Ratio Ki [2]
COc1ccc2c3c1O[C@H]1[C@@]4(OC)CC[C@@]5(C[C@@H]4c4ccccc4NC(=O)c4ccc6[nH]ccc6c4)[C@@H](C2)N(CC2CC2)CC[C@]315 | > 4.8 | > 4.8
COc1ccc2c3c1O[C@H]1[C@@]4(OC)CC[C@@]5(C[C@@H]4c4ccccc4N)[C@@H](C2)N(CC2CC2)CC[C@]315 | – | 70.4
COc1ccc2c3c1O[C@H]1[C@@]4(OC)CC[C@@]5(C[C@@H]4c4ccccc4N(C)Cc4ccc(C(F)(F)F)cc4)[C@@H](C2)N(CC2CC2)CC[C@]315 | 3.2 | 19.7
COc1ccc2c3c1O[C@H]1[C@@]4(OC)CC[C@@]5(C[C@@H]4c4ccccc4NCC4CCCC4)[C@@H](C2)N(CC2CC2)CC[C@]315 | – | > 38.3
COc1ccc2c3c1O[C@H]1[C@@]4(OC)CC[C@@]5(C[C@@H]4c4ccccc4NC(=O)c4ccc(Cl)c(Cl)c4)[C@@H](C2)N(CC2CC2)CC[C@]315 | – | 1.5
COc1ccc2c3c1O[C@H]1[C@@]4(OC)CC[C@@]5(C[C@@H]4c4ccccc4NC(=O)c4ccc(C)c(C)c4)[C@@H](C2)N(CC2CC2)CC[C@]315 | – | > 93.5
COc1ccc(CNc2ccccc2[C@H]2C[C@@]34CC[C@]2(OC)[C@@H]2Oc5c(OC)ccc6c5[C@@]23CCN(CC2CC2)[C@@H]4C6)cc1 | – | > 40
COc1ccc2c3c1O[C@H]1[C@@]4(OC)CC[C@@]5(C[C@@H]4c4ccccc4NC(=O)C(C)(C)C)[C@@H](C2)N(CC2CC2)CC[C@]315 | – | < 0.1
COc1ccc2c3c1O[C@H]1[C@@]4(OC)CC[C@@]5(C[C@@H]4c4ccccc4NCC4CCN(C(=O)OC(C)(C)C)CC4)[C@@H](C2)N(CC2CC2)CC[C@]315 | > 2.8 | > 2.8
COc1ccc2c3c1O[C@H]1[C@@]4(OC)CC[C@@]5(C[C@@H]4c4ccccc4NC(=O)OCc4ccccc4)[C@@H](C2)N(CC2CC2)CC[C@]315 | – | 22.5
COc1ccc2c3c1O[C@H]1[C@@]4(OC)CC[C@@]5(C[C@@H]4c4ccccc4NCC4CC4)[C@@H](C2)N(CC2CC2)CC[C@]315 | – | > 22.9
CNc1ccccc1[C@H]1C[C@@]23CC[C@]1(OC)[C@@H]1Oc4c(OC)ccc5c4[C@@]12CCN(CC1CC1)[C@@H]3C5 | – | 3.1
COc1ccc2c3c1O[C@H]1[C@@]4(OC)CC[C@@]5(C[C@@H]4c4ccccc4NC(=O)c4ccccc4O)[C@@H](C2)N(CC2CC2)CC[C@]315 | – | 5.3
COc1ccc2c3c1O[C@H]1[C@@]4(OC)CC[C@@]5(C[C@@H]4c4ccccc4NC(=O)c4ccccc4)[C@@H](C2)N(CC2CC2)CC[C@]315 | – | > 265
COc1ccc2c3c1O[C@H]1[C@@]4(OC)CC[C@@]5(C[C@@H]4c4ccccc4NC(=O)Cc4ccc(C)c(C)c4)[C@@H](C2)N(CC2CC2)CC[C@]315 | – | < 0.5
